The values that follow come from PubChem BioAssay AID463215 (Sanford-Burnham Center for Chemical Genomics, 2010).

The structures appear in SMILES notation. The entries are a selection whose mix differs from that of the whole data set. The source made the active and inactive calls.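 The calls were made as follows: active = inhibition of yeast growth at or above a set limit in either of two replicates at 10 µM; inactive = the rest.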

As usually defined, the inhibition is the relative decrease from the control value, in per cent.

This assay can be described thus: TIM10 isogenic control strain growth inhibition – single concentration, luminescence, S. cerevisiae, counter-screen for tim10-1 synthetic lethality project, confirmation (AID 463215).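 Also: isogenic wild-type TIM10 control yeast grown in succinate dextrose medium; this counterscreen used the strain with wild-type TIM10; 0% = yeast with DMSO and 100% = medium wells lacking yeast.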 As to conditions: BacTiter-Glo luminescence, 24 h, at 10 µM, stronger effect = higher value.
Take `O=[N+]([O-])c1cc([N+](=O)[O-])c(-c2cnn(-c3ccccc3)c2)c([N+](=O)[O-])c1`: the inhibition is active: 73.2%. The figure for `O=[N+]([O-])c1cc([N+](=O)[O-])c(Nc2ccccn2)c([N+](=O)[O-])c1` is active: 42.3%.
